Data on one molecule can be found in patent US12616678B2, “Methods to of aldehyde dehydrogenases for treatment of cancer” (THE PENN STATE RESEARCH FOUNDATION, priority 2020, dated 2026).

Amino acid sequences for entries named in this document (tags omitted).
UniProt P30838, whole entry: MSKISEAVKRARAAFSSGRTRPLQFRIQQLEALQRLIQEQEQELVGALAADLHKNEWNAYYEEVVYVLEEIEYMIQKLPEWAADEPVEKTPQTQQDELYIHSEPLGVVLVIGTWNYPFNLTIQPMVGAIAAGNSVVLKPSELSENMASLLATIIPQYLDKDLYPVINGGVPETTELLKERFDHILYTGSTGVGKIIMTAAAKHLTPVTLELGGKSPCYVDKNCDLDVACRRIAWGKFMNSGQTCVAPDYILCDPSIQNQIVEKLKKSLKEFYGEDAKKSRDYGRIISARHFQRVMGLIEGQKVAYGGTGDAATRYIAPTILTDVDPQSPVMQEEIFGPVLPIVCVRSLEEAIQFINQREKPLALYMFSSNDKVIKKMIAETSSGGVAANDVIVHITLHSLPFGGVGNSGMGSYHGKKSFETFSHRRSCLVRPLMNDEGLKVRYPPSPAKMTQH
UniProt P00352, whole entry: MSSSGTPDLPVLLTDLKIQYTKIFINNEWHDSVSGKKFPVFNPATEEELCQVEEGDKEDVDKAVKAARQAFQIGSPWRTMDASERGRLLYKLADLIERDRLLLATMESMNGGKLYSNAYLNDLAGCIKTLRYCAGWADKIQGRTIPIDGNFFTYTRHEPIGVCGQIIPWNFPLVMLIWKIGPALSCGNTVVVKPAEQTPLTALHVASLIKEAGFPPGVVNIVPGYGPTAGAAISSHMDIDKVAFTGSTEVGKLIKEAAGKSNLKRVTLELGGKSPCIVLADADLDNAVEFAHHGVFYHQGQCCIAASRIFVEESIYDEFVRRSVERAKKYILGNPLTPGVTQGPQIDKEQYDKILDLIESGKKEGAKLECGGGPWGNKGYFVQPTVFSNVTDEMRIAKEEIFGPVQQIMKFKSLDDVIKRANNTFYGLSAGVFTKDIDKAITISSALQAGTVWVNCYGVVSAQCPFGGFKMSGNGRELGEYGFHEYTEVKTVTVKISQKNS

The target in one assay is ALDH3A1 (Homo sapiens, UniProt P30838). As to the kind of experiment: ALDH isoform-specific enzyme assay, ALDH3A1 (NADH absorbance). The assay is classed as biochemical. The note with it: read-out: IC50s ALDH3A1.
The target of a further assay is ALDH1A1 (Homo sapiens, UniProt P00352). As to the kind of experiment: ALDH isoform-specific enzyme assay, ALDH1A1 (NADH absorbance). In kind it is biochemical. The note with it: read-out: IC50s ALDH1A1.

`CS(=O)(=O)Nc1ccc(-c2coc3cc(OCc4cccc(C(=O)O)c4)ccc3c2=O)cc1`: the values for the IC50 at ALDH3A1 and at ALDH1A1 were 2.72 µM and 2.43 µM, respectively.
